The target of the assay is HsmR (Clostridioides difficile, UniProt A0A9R0BIW1). The assay can be described thus: biochemical.

`C=CC1=C(C)C2=Cc3c(C=C)c(C)c4[n]3[Fe]([Cl])[n]3c(c(C)c(CCC(=O)O)c3=CC3=NC(=C4)C(C)=C3CCC(=O)O)=CC1=N2` [heme]: the Kd (in general, the constant that tells how readily two partners part at equilibrium) amounted to 6.6 ± 1.1 µM.
